The values below are quoted from earlier work in US20100022549A1, “ALPHA-HELIX MIMETIC WITH FUNCTIONALIZED PYRIDAZINE” (The Scripps Research Institute, priority 2008, published 2010).

Protein sequences, listed by entry. Tags and fused reporters are not part of them.
UniProt Q07817, whole entry, species assumed: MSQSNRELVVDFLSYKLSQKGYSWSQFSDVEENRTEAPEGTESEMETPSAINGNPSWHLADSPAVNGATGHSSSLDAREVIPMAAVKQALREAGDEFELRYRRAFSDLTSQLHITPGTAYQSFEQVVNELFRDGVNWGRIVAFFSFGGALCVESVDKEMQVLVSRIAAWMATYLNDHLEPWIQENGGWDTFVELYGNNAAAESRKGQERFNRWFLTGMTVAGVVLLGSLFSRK

The target in the data set is Bcl-xL (Homo sapiens, UniProt Q07817). The conditions noted are these: 16 residue BH3 domain peptide from Bak (aa 72 to 87) bound to Bcl-xL.

On to “16 residue BH3 domain peptide from Bak: 16 residue BH3 domain peptide from Bak (aa 72 to 87)”, for which the Kd was about 300 nM.
